## Antibody variant affinities, Ab-14 light chain, assay 1

Data: MIT Lincoln Laboratory AlphaSeq set, Engelhart et al. 2022, doi:10.1038/s41597-022-01779-4, as distributed in FLAb.

Target: peptide PDVDLGDISGINAS, taken from heptad repeat 2 (HR2) of SARS-CoV-2 spike.

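The parent was found by panning a naive human phage display library on the peptide. AAYL50 was designed without a model: most single CDR substitutions and a random sample of double and triple ones. AlphaSeq pools MATa yeast showing the antibodies with MATalpha yeast showing the peptide. Pairs that bind mate more often; barcode pairs of the diploids are counted by sequencing. Each replicate has its own calibration line, from reference interactions of the BCL2 family. Mating was done three times.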

The variants keep the heavy chain, the linker and the frameworks of Ab-14 (scFv order VH, the linker GGGGSGGGGSGGGGS, VL).
VH: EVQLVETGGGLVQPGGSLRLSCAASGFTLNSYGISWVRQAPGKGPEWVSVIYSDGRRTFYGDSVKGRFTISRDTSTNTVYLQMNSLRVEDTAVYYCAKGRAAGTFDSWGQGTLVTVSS
VL: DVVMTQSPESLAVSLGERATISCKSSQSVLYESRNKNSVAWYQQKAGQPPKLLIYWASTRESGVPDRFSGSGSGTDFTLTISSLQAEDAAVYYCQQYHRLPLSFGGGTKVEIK

Positions count from residue 1 of the parent VL; Q96F puts F in place of Q.
Numbers give log10(Kd / nM), so 0 is 1 nM and 3 is 1 µM. Smaller is tighter.
"ND" marks a missing value. The strain was present, yet no cells mated with the target were sequenced in that replicate, which points to weak or no binding.

| # | changes | replicates, log10 nM | control signals |
|---|---|---|---|
| 1 | Q96F/P101Q/L102Q | ND / ND / ND | 2/9 (4.42) |
| 2 | E32I/R60F/H98F | ND / 5.02 / ND | 1/9 (3.28) |
| 3 | Q96W/Y97L/P101G | 0.40 / 1.07 / 1.09 | 0/9 |
| 4 | Y31P/S33W/S58K | 1.45 / 1.65 / 1.74 | 3/9 (3.71) |
| 5 | K24D/N35A/K36M | 2.21 / 2.20 / 2.26 | 3/9 (4.14) |
| 6 | E32C/N35Q | 3.25 / ND / ND | 0/9 |
| 7 | Q27C/R34M/P101H | ND / ND / ND | 0/9 |
| 8 | S26M/S33H/P101W | ND / ND / ND | 1/9 (2.97) |
| 9 | N35C/H98E/S103A | ND / 2.91 / 3.09 | 0/9 |
| 10 | N35R/S38F/W56E | 3.61 / 2.98 / 3.56 | 6/9 (5.16) |
| 11 | H98P | 4.01 / ND / ND | 3/9 (4.68) |
| 12 | L30M/R60F | 4.48 / 3.25 / ND | 1/9 (4.31) |
| 13 | K24M/V29N/Q96S | 0.76 / 0.97 / 0.91 | 6/9 (4.45) |
| 14 | K24L/N35M/Q95A | ND / 4.94 / 4.28 | 1/9 (3.43) |
| 15 | V29T/N35A/S103F | ND / ND / ND | 1/9 (3.45) |
| 16 | E32K/R34E/Q96K | 0.91 / 1.08 / 1.22 | 2/9 (4.14) |
| 17 | L30E/V39N/P101M | ND / ND / ND | 1/9 (3.15) |
| 18 | A57T/Y97L/L100K | 2.40 / 2.06 / 2.57 | 2/9 (5.55) |
| 19 | E32A/S33I/L100E | ND / ND / 4.42 | 2/9 (3.86) |
| 20 | T59S/H98G/S103Y | ND / ND / ND | 0/9 |
| 21 | K36I/W56F/L100A | ND / ND / ND | 0/9 |
| 22 | S26Q/T59V/L102I | 1.32 / 1.16 / 1.36 | 0/9 |
| 23 | N37H/E61T/Q95H | ND / 4.54 / 4.71 | 1/9 (3.83) |
| 24 | E61L/H98N/L100T | 2.01 / 2.12 / 1.50 | 0/9 |
| 25 | S26P/Q27E/Y31M | 0.36 / 0.59 / 0.61 | 2/9 (4.97) |
| 26 | S33R/S62T/P101T | ND / ND / 3.01 | 1/9 (4.34) |
| 27 | S28R/N35F/P101S | ND / ND / ND | 0/9 |
| 28 | S28R/E32K/P101A | ND / ND / ND | 0/9 |
| 29 | V29C/L100F/S103F | ND / ND / ND | 0/9 |
| 30 | S26P/S38E/H98E | ND / ND / ND | 1/9 (1.88) |
| 31 | K24P/L102H/S103Y | ND / ND / ND | 0/9 |
| 32 | S33C/A57F/H98W | 6.26 / 3.53 / ND | 4/9 (4.21) |
| 33 | S28P/Q95W/Y97G | 4.22 / ND / 5.42 | 3/9 (4.41) |
| 34 | N35T/T59I/Y97T | 4.18 / 5.27 / ND | 2/9 (5.05) |
| 35 | H98P/L102T/S103N | ND / ND / ND | 0/9 |
| 36 | Q27E/N37M/Y97E | ND / ND / ND | 2/9 (4.17) |
| 37 | S28G/N37D/A57Y | 0.62 / 2.32 / 1.87 | 1/9 (4.50) |
| 38 | K36H/A57R/T59P | 1.56 / 1.82 / 2.10 | 0/9 |
| 39 | L30C/V39T/E61A | ND / ND / ND | 1/9 (2.84) |
| 40 | L30E/E32V/L100H | 2.37 / 2.02 / 1.69 | 0/9 |
| 41 | E32D/K36T/W56G | 5.58 / 5.67 / 3.75 | 6/9 (4.04) |
| 42 | V29S/R34D | 0.55 / 0.83 / 0.60 | 7/9 (4.29) |
| 43 | E32W/N35T/N37I | ND / ND / ND | 0/9 |
| 44 | S25N/N35F/Q95E | ND / ND / ND | 0/9 |
| 45 | K24F/T59P/L100C | ND / ND / ND | 0/9 |
| 46 | Y31S/T59R | 1.24 / 1.49 / 1.43 | 1/9 (6.03) |
| 47 | Q27L/A57V/R99D | ND / ND / ND | 0/9 |
| 48 | V29I/S33G/S103K | ND / ND / ND | 0/9 |
| 49 | S33L/N35E/T59M | 0.55 / 1.04 / 0.55 | 0/9 |

The closing 7 entries, repeated:

| changes | replicates, log10 nM | control signals |
|---|---|---|
| E32W/N35T/N37I | ND / ND / ND | 0/9 |
| S25N/N35F/Q95E | ND / ND / ND | 0/9 |
| K24F/T59P/L100C | ND / ND / ND | 0/9 |
| Y31S/T59R | 1.24 / 1.49 / 1.43 | 1/9 (6.03) |
| Q27L/A57V/R99D | ND / ND / ND | 0/9 |
| V29I/S33G/S103K | ND / ND / ND | 0/9 |
| S33L/N35E/T59M | 0.55 / 1.04 / 0.55 | 0/9 |

Nonspecific signal, from three strains lacking the peptide, appeared in 18% of pairings of library AAYL50, centred on 4.19 (5% of these signals below 2.99); values are not corrected for it. The control count says in how many pairings with the empty strains this scFv gave a signal, with their mean in brackets.
In this assay the parent's reference entry averaged 0.65; its copy inside this library read 1.68.